The results in this text go back to patent US8426427B2, “Fused heterocyclic derivative, pharmaceutical composition comprising the derivative, and use of the composition for medical purposes” (Kissei Pharmaceutical Co., Ltd., priority 2007, dated 2013).

This series in a line: Assay for oral absorbability: plasma drug concentration after oral administration to rats. The conditions noted are these: fasted male SD rats, oral 3 mg/kg. The method, then:
Assay for Oral Absorbability
1) Preparation of the Samples for Measurement of the Drug Concentration after Oral Administration
As experimental animal, overnight fasted SD rats (Charles River, male, 7 weeks of age, 170-210 g) were used. Three mg of a test compound was dissolved by adding 0.2 mL of N,N-dimethylacetoamide, 9.794 mL of 0.5% aqueous methylcellulose solution and 0.006 mL of 2N NaOH, and then 0.3 mg/mL solution was prepared. The body weights of rats were measured, and the solution of the test compound was administered orally at the dose of 10 mL/kg (3 mg/kg). The oral administration was performed with gastric tube for rat and 2.5 mL syringe. The sampling times for collection of blood were 15, 30, 60, 120, 240 and 360 minutes after the oral administration. The blood was centrifuged, and the plasma was used as the sample for measurement of the drug concentration in blood.
2) Measurement of the Drug Concentration
To 0.025 mL of the plasma obtained in 1) described above, 0.1 mL of an adequate internal standard material was added according to the usual method, and then deproteinization was performed by adding 0.875 mL of acetonitrile. After centrifugation, 0.005 mL of the supernatant was injected into LC-MS/MS. The drug concentration in plasma was measured by LC-MS/MS method under the conditions as follows. […]

For `O=C(O)c1scc2[nH]c(=O)n(-c3cc(S(=O)(=O)N4CCCc5ccccc54)ccc3Cl)c(=O)c12`, the “C360 (plasma drug concentration at 360 minutes after administration)” value is reported as 21.
